We go through one substance from patent US8183201B2 (priority 2006, dated 2012).

Amino acid sequences for entries named in this document (tags omitted). Residues count along the entry.
UniProt P08648, 895-1049 partner limits assumed: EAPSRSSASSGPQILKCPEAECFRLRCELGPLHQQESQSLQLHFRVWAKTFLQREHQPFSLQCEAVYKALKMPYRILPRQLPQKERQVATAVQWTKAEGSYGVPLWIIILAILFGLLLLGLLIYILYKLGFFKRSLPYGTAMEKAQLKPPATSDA
UniProt P08648, 42-894 limits assumed: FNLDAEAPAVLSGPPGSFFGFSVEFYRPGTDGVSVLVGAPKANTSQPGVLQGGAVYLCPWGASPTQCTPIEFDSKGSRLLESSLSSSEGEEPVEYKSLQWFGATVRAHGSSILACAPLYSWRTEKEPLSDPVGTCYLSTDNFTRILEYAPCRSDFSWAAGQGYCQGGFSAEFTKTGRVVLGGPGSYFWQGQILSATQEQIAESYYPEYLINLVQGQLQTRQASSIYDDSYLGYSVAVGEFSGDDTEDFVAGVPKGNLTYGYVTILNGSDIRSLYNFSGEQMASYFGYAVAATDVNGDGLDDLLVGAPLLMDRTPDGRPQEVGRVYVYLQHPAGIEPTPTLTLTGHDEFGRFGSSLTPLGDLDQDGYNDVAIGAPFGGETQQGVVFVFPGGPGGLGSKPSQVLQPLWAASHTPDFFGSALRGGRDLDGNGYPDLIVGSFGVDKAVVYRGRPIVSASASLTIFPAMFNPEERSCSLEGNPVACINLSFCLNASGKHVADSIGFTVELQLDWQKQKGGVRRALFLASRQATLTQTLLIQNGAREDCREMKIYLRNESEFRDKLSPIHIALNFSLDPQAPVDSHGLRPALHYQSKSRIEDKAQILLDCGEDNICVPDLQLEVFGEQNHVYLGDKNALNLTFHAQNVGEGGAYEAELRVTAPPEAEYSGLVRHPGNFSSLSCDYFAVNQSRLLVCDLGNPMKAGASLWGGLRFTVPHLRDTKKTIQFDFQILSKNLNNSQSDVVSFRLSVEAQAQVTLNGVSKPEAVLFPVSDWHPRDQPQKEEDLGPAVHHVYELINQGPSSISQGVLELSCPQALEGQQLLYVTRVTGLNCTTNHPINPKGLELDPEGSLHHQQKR
UniProt P05106, 27-788: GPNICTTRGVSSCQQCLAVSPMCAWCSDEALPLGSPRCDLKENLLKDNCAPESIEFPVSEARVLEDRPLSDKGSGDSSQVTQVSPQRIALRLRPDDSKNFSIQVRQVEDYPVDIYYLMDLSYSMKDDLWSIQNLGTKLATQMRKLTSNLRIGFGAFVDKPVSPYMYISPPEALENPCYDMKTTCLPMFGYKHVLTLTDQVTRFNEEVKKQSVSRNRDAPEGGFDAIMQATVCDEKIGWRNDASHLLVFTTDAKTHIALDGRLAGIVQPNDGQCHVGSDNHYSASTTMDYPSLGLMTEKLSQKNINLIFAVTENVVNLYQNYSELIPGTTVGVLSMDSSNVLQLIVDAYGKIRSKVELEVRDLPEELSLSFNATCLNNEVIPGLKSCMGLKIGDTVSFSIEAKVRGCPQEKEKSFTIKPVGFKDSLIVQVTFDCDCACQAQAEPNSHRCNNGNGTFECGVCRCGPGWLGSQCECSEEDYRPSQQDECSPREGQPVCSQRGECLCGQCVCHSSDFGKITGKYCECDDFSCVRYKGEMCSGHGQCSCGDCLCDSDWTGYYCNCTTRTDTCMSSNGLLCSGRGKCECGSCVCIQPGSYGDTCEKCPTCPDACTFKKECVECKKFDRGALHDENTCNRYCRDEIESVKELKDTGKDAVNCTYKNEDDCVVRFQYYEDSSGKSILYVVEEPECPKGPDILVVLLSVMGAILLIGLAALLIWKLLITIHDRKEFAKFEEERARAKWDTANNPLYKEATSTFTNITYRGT
UniProt P06756, 31-1048: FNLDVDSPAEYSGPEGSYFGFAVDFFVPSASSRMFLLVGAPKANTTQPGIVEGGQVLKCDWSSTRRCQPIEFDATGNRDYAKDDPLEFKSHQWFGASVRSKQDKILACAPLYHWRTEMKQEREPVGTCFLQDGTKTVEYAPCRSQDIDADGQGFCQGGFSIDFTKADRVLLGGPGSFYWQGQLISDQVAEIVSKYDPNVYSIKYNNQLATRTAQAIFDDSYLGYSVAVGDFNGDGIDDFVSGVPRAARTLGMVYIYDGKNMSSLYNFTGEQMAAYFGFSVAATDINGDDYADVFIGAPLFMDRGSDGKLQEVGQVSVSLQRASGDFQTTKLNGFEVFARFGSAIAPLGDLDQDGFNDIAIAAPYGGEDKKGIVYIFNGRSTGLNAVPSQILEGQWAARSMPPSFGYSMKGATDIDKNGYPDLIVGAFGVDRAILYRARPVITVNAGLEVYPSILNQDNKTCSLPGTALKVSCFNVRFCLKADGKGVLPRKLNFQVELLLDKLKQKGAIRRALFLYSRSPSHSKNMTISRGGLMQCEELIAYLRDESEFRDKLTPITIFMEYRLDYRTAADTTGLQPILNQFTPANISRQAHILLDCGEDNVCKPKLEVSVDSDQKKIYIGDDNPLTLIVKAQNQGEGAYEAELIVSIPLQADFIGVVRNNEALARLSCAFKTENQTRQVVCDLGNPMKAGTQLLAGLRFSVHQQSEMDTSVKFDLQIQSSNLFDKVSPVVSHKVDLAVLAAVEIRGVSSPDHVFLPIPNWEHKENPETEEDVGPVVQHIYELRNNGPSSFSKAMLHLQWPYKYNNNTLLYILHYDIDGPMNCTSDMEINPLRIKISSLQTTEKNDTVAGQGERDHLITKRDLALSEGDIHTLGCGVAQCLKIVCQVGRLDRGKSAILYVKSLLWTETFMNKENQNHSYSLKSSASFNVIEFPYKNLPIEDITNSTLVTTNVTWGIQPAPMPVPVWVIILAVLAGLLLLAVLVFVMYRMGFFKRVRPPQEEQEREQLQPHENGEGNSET

What all share (type): cell-based
The target in one assay is T1, integrin α5β1 (Homo sapiens, UniProt P05556+P08648).
T1 construct: Human erythroleukemia K562 cells were purchased from ATCC; host or cells: K562

For a further assay, the target named is platelet aggregation (Homo sapiens, UniProt P05106+P08514).
A further assay concerns the target T2, integrin αIIbβ3 (Homo sapiens, UniProt P05106+P08514).
T2 construct: host or cells: CHO (CHO-αIIbβ3)

In the next assay the target is integrin αvβ3 (UniProt P05106+P06756).

Where two headings read alike, the source gives them in different places.

Regarding “RD: rhodostomin variant having a RGD motif variant ^48PRLDMP^53, SEQ ID NO: 36”, the IC50 in the assay with integrin α5β1 (read-out: IC50 α5β1) worked out at 3040 nM; with integrin α5β1 (read-out: IC50 α5β1/Fn), 3040 nM; in the assay with platelet aggregation, 433 nM; in the assay with integrin αIIbβ3 (read-out: IC50 αIIbβ3), 2220 nM; with integrin αIIbβ3 (read-out: IC50 αllbβ3/Fg) it was 2220 nM; in the assay with integrin αvβ3 (read-out: IC50 αvβ3) it was 35 nM. In the assay with integrin αvβ3 (read-out: IC50 αvβ3/Fg), the IC50 was determined as 35 nM.
